Biological target: Peroxisome proliferator-activated receptor gamma (Homo sapiens, UniProt P37231)
Test: ChEBML_1669056

Chains of the proteins cited; added tags and fusions are not shown. Lines headed by an entry give the natural chain unless they say otherwise; changes in a name come on top.
UniProt P37231: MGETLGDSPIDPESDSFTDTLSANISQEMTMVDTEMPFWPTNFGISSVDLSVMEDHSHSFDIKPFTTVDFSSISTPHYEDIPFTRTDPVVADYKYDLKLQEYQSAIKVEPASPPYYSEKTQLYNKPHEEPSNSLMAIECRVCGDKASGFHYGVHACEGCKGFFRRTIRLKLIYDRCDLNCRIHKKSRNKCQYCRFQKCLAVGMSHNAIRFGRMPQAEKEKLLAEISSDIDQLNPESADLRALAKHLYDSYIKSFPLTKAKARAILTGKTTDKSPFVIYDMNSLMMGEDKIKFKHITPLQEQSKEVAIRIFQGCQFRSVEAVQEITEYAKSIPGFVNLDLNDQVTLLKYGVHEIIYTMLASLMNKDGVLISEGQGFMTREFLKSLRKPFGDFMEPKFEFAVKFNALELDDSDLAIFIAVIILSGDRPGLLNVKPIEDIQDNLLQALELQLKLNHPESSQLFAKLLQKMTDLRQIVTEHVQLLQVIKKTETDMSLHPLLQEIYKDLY

Ki: 3.4 µM
Structure (SMILES): O[C@@H]1[C@H](O)CS[C@H]1n1cnc2c(NCc3cccc(I)c3)nc(Cl)nc21 [(2R,3R,4S)-2-(6-(3-iodobenzylamino)-2-chloro-9H-purin-9-yl)-tetrahydrothiophene-3,4-diol]

Reference: BindingDB's records for doi:10.1021/acs.jmedchem.7b00805 (Sahmyook University, 2017)
